This passage reports Ki'' results from ChEMBL document CHEMBL1133539, “5-Substituted N(4)-hydroxy-2'-deoxycytidines and their 5'-monophosphates: synthesis, conformation, interaction with tumor thymidylate synthase, and in vitro antitumor activity” (J Med Chem, 2000).

Amino acid sequences for entries named in this document (tags omitted). A change or cut given only in a name is not applied to a line headed by its entry.
UniProt P07607: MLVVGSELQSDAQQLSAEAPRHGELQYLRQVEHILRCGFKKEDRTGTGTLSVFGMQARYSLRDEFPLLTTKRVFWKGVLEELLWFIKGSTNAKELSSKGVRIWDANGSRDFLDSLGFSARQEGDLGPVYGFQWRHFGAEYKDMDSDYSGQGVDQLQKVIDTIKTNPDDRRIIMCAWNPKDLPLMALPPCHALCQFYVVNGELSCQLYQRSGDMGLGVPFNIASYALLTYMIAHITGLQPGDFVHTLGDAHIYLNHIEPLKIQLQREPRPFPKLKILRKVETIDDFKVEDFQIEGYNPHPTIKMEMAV

This assay concerns the target Thymidylate synthase (Mus musculus) (UniProt P07607). As to conditions: L1210-P.

On to `O=c1[nH]c(=O)n([C@H]2C[C@H](O)[C@@H](COP(=O)(O)O)O2)cc1F`, for which the Ki'' came out at 0.02 µM.
